Patent publication US20060210570A1

Target: prostasin (recombinant human, soluble, active two-chain form purified from conditioned medium of CHO cells transfected with full-length prostasin) (human) (UniProt Q16651)
Test: cell-based or functional assay

Substance: aprotinin (from UniProt P00974 36-93)
- IC50, inhibition of prostasin amidolytic activity towards S2765: 1.2 nM
